Measurements taken from patent US8948863B2, “Photokinetic ocular drug delivery methods and apparatus” (priority 2009, dated 2015).

Columns and labels:
[1] = Histological examination of Franz cell mounted sclera after PODD exposure; set-up: species or system ovine; conditions: insulin formulation, 24 hour 405 nm PODD exposure
Protocol: (§1) Sclera samples were taken and placed in formalin as follows: Normal control sclera with no exposure to drug or light, Franz cell 60 minute control drug only exposure and Franz cell 60 minute exposure to both drug and 350 nm LED light. Fixed slides were evaluated for structural integrity and gross appearance by a pathologist blinded as to the origin of the sample tissue.
as §1, with “Normal” for “Sclera samples were taken and placed in formalin as follows: Normal”, “light were taken and placed in formalin.” for “light.”, “masked” for “blinded”

[2] = Franz cell sclera tissue permeation, PODD (pulsed LED light) vs passive controls; conditions: for flux rate vs. controls: 24 hours
[3] = Rabbit ocular drug delivery model: human insulin concentration in eye fluids and tissues by ELISA; conditions: 60 minute exposure
[4] = Passive Delivery eye (no light exposure)

insulin
histological examination, PODD exposure compared to passive control and normal sclera [1]: no differences between the samples | structural integrity of the sclera [1]: grossly intact and undamaged | flux rate vs. controls ([2]; 405 nm PODD group, 24 CPS, 200 IUs/mL): 2 times | flux rate vs. controls ([2]; 450 nm PODD group, 24 CPS, 200 IUs/mL): 7 times | levels of insulin recovered ([2]; both light groups (405 and 450 nm), 24 hour time point, p<0.05): significant | insulin permeation through the scleral tissue, PODD cells vs. controls ([2]; both wavelengths (405 nm and 450 nm), 24 CPS, 200 IUs/mL): improvement | Insulin, Aqueous Humor ([3]; Passive Contralateral eye): 2 μU/mL | Insulin, Cornea ([3]; Passive Contralateral eye): 22 μU/gram Tissue/mg Protein | Insulin, Neural Retina ([3]; Passive Contralateral eye): 0.98 μU/gram Tissue/mg Protein | Insulin, RPE Coroid ([3]; Passive Contralateral eye): 0.65 μU/gram Tissue/mg Protein | Insulin, Sclera ([3]; Passive Contralateral eye): 56 μU/gram Tissue/mg Protein | Insulin, Vitreous Humor ([3]; Passive Contralateral eye): 2 μU/mL | Insulin, Aqueous Humor [3, 4]: 2 μU/mL | Insulin, Cornea [3, 4]: 200 μU/gram Tissue/mg Protein | Insulin, Neural Retina [3, 4]: 1.3 μU/gram Tissue/mg Protein | Insulin, RPE Coroid [3, 4]: 0.89 μU/gram Tissue/mg Protein | Insulin, Sclera [3, 4]: 200 μU/gram Tissue/mg Protein | Insulin, Vitreous Humor [3, 4]: 4 μU/mL | Insulin, Aqueous Humor ([3]; Photokinetic Contralateral eye): 40 μU/mL | Insulin, Cornea ([3]; Photokinetic Contralateral eye): 22 μU/gram Tissue/mg Protein | Insulin, Neural Retina ([3]; Photokinetic Contralateral eye): 2.5 μU/gram Tissue/mg Protein | Insulin, RPE Coroid ([3]; Photokinetic Contralateral eye): 3.75 μU/gram Tissue/mg Protein | Insulin, Sclera ([3]; Photokinetic Contralateral eye): 98 μU/gram Tissue/mg Protein | Insulin, Vitreous Humor ([3]; Photokinetic Contralateral eye): 6 μU/mL | Insulin, Aqueous Humor ([3]; Photokinetic exposure eye): 114 μU/mL | Insulin, Cornea ([3]; Photokinetic exposure eye): 1500 μU/gram Tissue/mg Protein | Insulin, Neural Retina ([3]; Photokinetic exposure eye): 28 μU/gram Tissue/mg Protein | Insulin, RPE Coroid ([3]; Photokinetic exposure eye): 31 μU/gram Tissue/mg Protein | Insulin, Sclera ([3]; Photokinetic exposure eye): 1498 μU/gram Tissue/mg Protein | Insulin, Vitreous Humor ([3]; Photokinetic exposure eye): 118 μU/mL
